# Antibody variant affinities, Ab-14 heavy chain, assay 1

Data: MIT Lincoln Laboratory AlphaSeq set, Engelhart et al. 2022, doi:10.1038/s41597-022-01779-4, as distributed in FLAb.

Antigen: PDVDLGDISGINAS, a 14-residue peptide of the SARS-CoV-2 spike HR2 region.

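Phage display of a naive human antibody library on the peptide gave the parent. AAYL49 was designed without a model: most single CDR substitutions and a random sample of double and triple ones. AlphaSeq pools MATa yeast showing the antibodies with MATalpha yeast showing the peptide. Mating (16 h, 30 °C) was followed by selection of diploids and sequencing of their barcodes. A regression on co-assayed BCL2-family reference pairs converts the normalised counts of each replicate to an apparent Kd. Mating was done three times.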

Parent: Ab-14, a human scFv built as VH, a (GGGGS)3 linker, VL. Only the CDRs of the heavy chain vary.
VH: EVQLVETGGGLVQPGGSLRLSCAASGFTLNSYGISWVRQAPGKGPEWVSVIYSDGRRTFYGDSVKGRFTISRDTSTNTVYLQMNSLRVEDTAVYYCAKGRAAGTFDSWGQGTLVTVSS
VL: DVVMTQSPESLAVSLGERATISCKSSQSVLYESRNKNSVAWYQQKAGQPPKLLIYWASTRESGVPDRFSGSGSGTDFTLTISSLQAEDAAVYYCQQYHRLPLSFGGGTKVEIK

Variants are written as CDR1, CDR2 and CDR3 of the heavy chain (limits as in the source). Parent: GFTLNSYGIS, VIYSDGRRTFYGDSVK, GRAAGTFDS.
Scale: log10 of Kd in nM, estimated from mating counts; low values are strong binders.
A mean of the replicates is given; it leaves out those without a signal.
"no signal" means that the variant was in the library but no mating with the target was seen in any replicate; the authors take this as a sign of poor binding, and no number exists.
For reference, the parent read 0.65 as the reference entry and 4.11 (one replicate of three) as a member of this library.
Empty control strains, which show no peptide, gave a signal in 15% of pairings with library AAYL49; the median was 4.06 and 95% of these signals were weaker than 2.83. No background was subtracted.

CDR-H1,CDR-H2,CDR-H3,"mean, log10 nM",detected
DFTLNSYGIS,VIYSDGRSTFYGDSVK,GRAAGTWDS,4.88,2/3
GFTLNSYGIS,VIYSCGRRTFYGDSNL,GRAAGTFDS,no signal,0/3
GFTLNSYGIS,VFYSDGRRTFYGSSVK,GRAAGTHDS,no signal,0/3
GFTFNSYGIS,VIYSDGRRTCYGDSVK,GRAAGTFIS,4.05,1/3
GFTLNSYGIS,RIYSDGRRTFYGDAVK,GRAASTFDS,no signal,0/3
GFTLNSYGIS,VIISWGRRTFYGDEVK,GRAAGTFDS,no signal,0/3
GFTLFYYMIS,VIYSDGRRTFYGDSVK,GRAAGTFDS,5.42,2/3
GFTLNSYLIS,VIYSDGRRTFYGDSRK,GRAAGHFDS,4.91,1/3
GKTLNSYGIS,VIYSDGRRTFYYDSVK,GRAAATFDS,4.05,2/3
GFTLNSYGIQ,VIYPDGRRTFYGDSSK,GRAAGTFDS,no signal,0/3
GFTLNSYSIS,VIYSDGYRTFYGDSVK,GRAAFTFDS,no signal,0/3
GFTLNSPGIS,VIYSDGRRTFYGDSVK,VRAAWTFDS,no signal,0/3
EFTLNSYGIS,VIYYDGRRTFYGDSVK,GRWAGTFDS,1.47,3/3
GTTLNSYGIS,VIYSDGRRTFYGDSYK,GRAVGTFDS,5.42,1/3
GFTLNSYGHF,VIYSGGRRTFYGDSVK,GRAAGTFDS,no signal,0/3
GFTLNSYGIS,VIYSDGRRTFYNDSVK,GRAEMTFDS,no signal,0/3
GFTLNSYGTS,VIYSDGRRTFYKDSSK,GRAAGTFDS,4.05,1/3
GFTLNSYGIS,LIYSDGRRTQYGDSAK,GRAAGTFDS,no signal,0/3
GFFLNSYGIS,VIYSDGRRTFYGDQVK,CRAAGTFDS,4.17,1/3
GFTLNSYGIS,VIYSDGRRTFMGDSVK,GRAEGYFDS,4.69,2/3
GFTVTSYGIS,VVYSDGRRTFYGDSVK,GRAAGTFDS,2.96,3/3
MFTLNSYGIS,VIYSQGRRTFYGDSVK,GRHAGTFDS,no signal,0/3
KFTLNSYGIS,VIYSDGERTFYGDSVK,GRAAGTFDC,0.21,3/3
GFYLNSYGWS,VIYSDGRRTFYGDSVD,GRAAGTFDS,3.76,1/3
GYTLNSYGIS,VIYSDGYRTFYGDSVA,GRAAGTFDS,4.05,1/3
GFTLPSYGIS,VIYSDNRRTFYGDKVK,GRAAGTFDS,4.55,1/3
GFTLNSLGIS,VIYSDGRRTFYGDSVK,GMAAGTFDP,2.33,3/3
GFTLNSCGIS,VIYSDGFRTFYGDSVK,GRAAGTFHS,4.35,3/3
GFTHNSYQIS,VIYQDGRRTFYGDSVK,GRAAGTFDS,4.12,1/3

The remaining entries, values ahead:

"mean, log10 nM",detected,CDR-H1,CDR-H2,CDR-H3
2.73,1/3,GFTLNSYVIS,VIYSDGRRTLYGDSVK,GRAAVTFDS
no signal,0/3,GFTLPSYFIS,VSYSDGRRTFYGDSVK,GRAAGTFDS
2.28,3/3,GFTLASYGIS,VIYSDGKRTFYGLSVK,GRAAGTFDS
no signal,0/3,GFTLHSYGIS,VIYSDWRRTFYGDSVK,GREAGTFDS
no signal,0/3,GFTLNSYGIS,VIYSDGRRTGYGVSVK,GRAAGTFFS
no signal,0/3,GFTLNSYGIS,VIYSDRRRTFYGDSVK,GRALGTFDQ
2.10,3/3,GFGLNSYGIS,VIYSDGRRTFYGDSPK,GRAAGTFDS
2.41,3/3,GFTLNSYGIS,VIYSDGRRTSYGDSVK,GRAAGTLDS
2.78,2/3,GFTLNSHGIS,VIYSDGRRTFYGERVK,GRAAGTFDS
no signal,0/3,GFTLNSYGIS,VIYSDGRRTFYGDIVG,GFAAGTFDS
5.00,2/3,GFMLNSYGIS,VIYSDGDRTFYGDSNK,GRAAGTFDS
1.91,1/3,GFCLNIYGIS,VIYSDGRRTFYGDSVK,GRAGGTFDS
no signal,0/3,GFTLNSYGMS,VIYSDGRRTFYTDSVK,GRACGTFDS
5.05,2/3,GFTLNSYGIS,VLYSDGRRTFIGDSVK,GRAAGNFDS
no signal,0/3,GFTLNSVGIS,VIYSDMRRTFYGDSVK,GRAAGTFDS
no signal,0/3,GFTLNMGGIS,RIYSDGRRTFYGDSVK,GRAAGTFDS
4.47,1/3,GFTLNSYGIS,QIYSDGRRTFYGDHVK,GRVAGTFDS
no signal,0/3,GFTLNSYGIS,VIYSDGRRTFYGCSVK,WRAAGTDDS
2.87,1/3,GFTLNSYGIS,VIYSDGRRTLVGDSVK,GRAAGTFDS
no signal,0/3,GFALNSYGIS,VQYSDGRRTFYGFSVK,GRAAGTFDS
1.35,3/3,GFKLNSYGIS,VIYSDGRRTFYGDSVK,GRAKGIFDS
2.45,3/3,GITLNSYGIS,VIYSDGRRTFYGDSVK,GRAAGRFTS
4.77,2/3,GFTLNSYGIS,VIYSDDQNTFYGDSVK,GRAAGTFDS
no signal,0/3,GFTLNSYGIS,VIYSDGRITFYGDSVK,GRAAGEFDS
4.47,1/3,GFTLNSYGIS,VWYNDGRRTFYGESVK,GRAAGTFDS
no signal,0/3,GFTLHGYGIS,VIYKDGRRTFYGDSVK,GRAAGTFDS
no signal,0/3,GFTLNSYGIS,VIYSDGRRTFKGDSEK,GRAAVTFDS
4.88,3/3,GFTLNSYGIV,VIYSDGRRTFYGDSWK,GRAAGTFES
no signal,0/3,GFTLNSYGIS,IIYSDGRRTFYMDSVK,GRAKGTFDS
3.15,1/3,GFTLNSYGIS,VIYSDGRRTFSGDSVE,GRAAGTFDS

7 of these entries, quoted again:

{"CDR-H1": "GFTLNSYGIS", "CDR-H2": "VIYSDGRRTLVGDSVK", "CDR-H3": "GRAAGTFDS", "mean, log10 nM": "2.87", "detected": "1/3"}
{"CDR-H1": "GFTLNSYGIS", "CDR-H2": "VIYSDGRITFYGDSVK", "CDR-H3": "GRAAGEFDS", "mean, log10 nM": "no signal", "detected": "0/3"}
{"CDR-H1": "GFTLNSYGIQ", "CDR-H2": "VIYPDGRRTFYGDSSK", "CDR-H3": "GRAAGTFDS", "mean, log10 nM": "no signal", "detected": "0/3"}
{"CDR-H1": "GFTVTSYGIS", "CDR-H2": "VVYSDGRRTFYGDSVK", "CDR-H3": "GRAAGTFDS", "mean, log10 nM": "2.96", "detected": "3/3"}
{"CDR-H1": "GFFLNSYGIS", "CDR-H2": "VIYSDGRRTFYGDQVK", "CDR-H3": "CRAAGTFDS", "mean, log10 nM": "4.17", "detected": "1/3"}
{"CDR-H1": "GFKLNSYGIS", "CDR-H2": "VIYSDGRRTFYGDSVK", "CDR-H3": "GRAKGIFDS", "mean, log10 nM": "1.35", "detected": "3/3"}
{"CDR-H1": "GFTLNSYGIS", "CDR-H2": "RIYSDGRRTFYGDAVK", "CDR-H3": "GRAASTFDS", "mean, log10 nM": "no signal", "detected": "0/3"}